# Test system: purified embryonic motoneurons
# Experiment: Death of motoneurons deprived of growth factors (survival count)
# Format: cell-based, rat
# Conditions: 2.5 days of culture; FIG. 5
smiles,measurement,value
CN1c2ccccc2C(NCCCCCCC(=O)O)c2ccc(Cl)cc2S1(=O)=O (stereo not shown) [tianeptine],survival of motoneurons deprived of growth factors,prevents the motoneurons from dying

# Source: patent publication US6599896B1, “Use of tianeptine in the production of medicaments to treat neurodegenerative pathologies” (Les Laboratoires Servier, priority 1999, dated 2003)
